The assay deals with T1, histamine-3 receptor (Rattus norvegicus, UniProt Q9QYN8).
T1 construct: from tissue; host or cells: male Sprague-Dawley rat brain cortex membranes
Kind of assay: Histamine-3 receptor binding, (3H)-N-α-methylhistamine displacement in rat cortical membranes. As to conditions: male Sprague-Dawley rat brain cortical membranes; (3H)-N-α-methylhistamine ~0.6 nM; 30 minutes at 25° C.; Cheng-Prusoff. The procedure:
Briefly, male Sprague-Dawley rat brain cortices were homogenized (1 g tissue/10 mL buffer) in 50 mM Tris-HCl/5 mM EDTA containing protease inhibitor cocktail (Calbiochem) using a polytron set at 20,500 rpm. Homogenates were centrifuged for 20 minutes at 40,000×g. The supernatant was decanted, and pellets were weighed. The pellet was resuspended by polytron homogenization in 40 mL 50 mM Tris-HCl/5 mM EDTA with protease inhibitors and centrifuged for 20 minutes at 40,000×g. […] Test compounds were dissolved in DMSO to provide 20 mM solution, serially diluted and then added to the incubation mixtures prior to initiating the incubation assay by addition of the membranes. Thioperamide (3 μM) was used to determine nonspecific binding. Binding incubations were conducted for 30 minutes at 25° C. and terminated by addition of 2 mL of ice cold 50 mM Tris-HCl (pH 7.7) and filtration through 0.3% polyethylenimine-soaked Unifilter plates (Packard). These filters were washed 4 additional times with 2 mL of ice-cold 50 mM Tris-HCl and dried for 1 hour. Radioactivity was determined using liquid scintillation counting techniques. Results were analyzed by Hill transformation and Ki values were determined using the Cheng-Prusoff equation.

Chains of the proteins cited; added tags and fusions are not shown. Lines headed by an entry give the natural chain unless they say otherwise; changes in a name come on top.
UniProt Q9QYN8: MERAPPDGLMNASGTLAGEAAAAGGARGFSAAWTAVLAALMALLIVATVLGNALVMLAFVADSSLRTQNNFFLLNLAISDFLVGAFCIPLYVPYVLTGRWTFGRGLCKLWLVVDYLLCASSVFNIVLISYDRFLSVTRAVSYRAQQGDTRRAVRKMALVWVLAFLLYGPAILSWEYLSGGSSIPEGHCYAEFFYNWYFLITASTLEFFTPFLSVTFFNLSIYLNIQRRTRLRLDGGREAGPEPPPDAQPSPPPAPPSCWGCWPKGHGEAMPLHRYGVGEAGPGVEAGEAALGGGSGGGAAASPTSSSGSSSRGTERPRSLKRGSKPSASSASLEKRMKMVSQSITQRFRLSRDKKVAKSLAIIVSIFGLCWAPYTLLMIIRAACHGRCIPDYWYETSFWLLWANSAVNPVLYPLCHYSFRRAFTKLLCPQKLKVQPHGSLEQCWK

“N-((3R)-1-{3-[(4′-cyano[1,1′-biphenyl]-4-yl)oxy]propyl}pyrrolidinyl)-4-fluoro-N-(4-fluorobenzoyl)benzamide [Example 129]”: the Ki is 192 nM.

The record behind these values is patent US6620839B2, “1,3-disubstituted and 1,3,3-trisubstituted pyrrolidines as histamine-3 receptor ligands and their therapeutic applications” (Abbott Laboratories, priority 2000, dated 2003).
